According to US20180086779A1, “TOCOPHEROL PHOSPHORIC ACID ESTER SALT, METHOD FOR MANUFACTURING THE SAME, AND SKIN EXTERNAL PREPARATION” (priority 2015, published 2018):

Conditions: relative to the salt with a = 1.10

Substance: sodium salt of a α-tocopherol phosphoric acid ester
- required time for dissolving it in water as compared to the case in which a is 1.10: one third
